# T1: Flag (N-terminus)- and V5 (C-terminus)-tagged recombinant human Lmbr1l protein (human, UniProt Q6UX01 1-489)
# T1 sequence (looked up): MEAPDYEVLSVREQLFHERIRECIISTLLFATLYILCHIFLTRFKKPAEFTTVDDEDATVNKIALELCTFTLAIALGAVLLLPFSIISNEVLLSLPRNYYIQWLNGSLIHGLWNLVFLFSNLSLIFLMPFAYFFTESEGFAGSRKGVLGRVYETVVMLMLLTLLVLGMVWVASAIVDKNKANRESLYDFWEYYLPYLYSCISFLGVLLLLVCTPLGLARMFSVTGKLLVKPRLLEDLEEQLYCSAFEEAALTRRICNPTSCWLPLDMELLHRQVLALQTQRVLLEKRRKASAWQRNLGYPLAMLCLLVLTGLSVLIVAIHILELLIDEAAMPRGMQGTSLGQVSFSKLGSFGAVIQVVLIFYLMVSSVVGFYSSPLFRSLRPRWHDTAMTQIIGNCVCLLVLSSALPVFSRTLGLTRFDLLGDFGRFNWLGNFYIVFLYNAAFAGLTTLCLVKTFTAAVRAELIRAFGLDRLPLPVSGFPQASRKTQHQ
# B1: GSK-3β (on the human protein microarray) (natural protein, UniProt P49841 1-420, looked up)
# chain: MSGRPRTTSFAESCKPVQQPSAFGSMKVSRDKDGSKVTTVVATPGQGPDRPQEVSYTDTKVIGNGSFGVVYQAKLCDSGELVAIKKVLQDKRFKNRELQIMRKLDHCNIVRLRYFFYSSGEKKDEVYLNLVLDYVPETVYRVARHYSRAKQTLPVIYVKLYMYQLFRSLAYIHSFGICHRDIKPQNLLLDPDTAVLKLCDFGSAKQLVRGEPNVSYICSRYYRAPELIFGATDYTSSIDVWSAGCVLAELLLGQPIFPGDSGVDQLVEIIKVLGTPTREQIREMNPNYTEFKFPQIKAHPWTKVFRPRTPPEAIALCSRLLEYTPTARLTPLEACAHSFFDELRDPNVKLPNGRDTPALFNFTTQELSSNPPLATILIPPHARIQAAASTPTNATAASDANTGDRGQTNNAASASASNST
# Biological target: T1, Flag (N-terminus)- and V5 …
# Assay: peptide or protein array
binder,measurement,value
B1,binding result,binds

# Reference: publication PMC7206793 (Science (New York, N.Y.), 2019)
